DSG3 Ab inh: inhibitors of pemphigus antibody binding to human desmoglein-3 | binding (percent of control), % at 10 µM | P32926 | AID 588358 | 310,000 compounds, 0.48% hits | DSG3-coupled beads, scFv-anti-DSG3-GFP binding, flow cytometry; active compounds read low;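 active = binding more than 3 SD below its plate's average and above zero; inconclusive = below that plate limit but binding exactly zero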;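 also: hits lower antibody fragment binding to DSG3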
eIF4H FP inh: inhibitors of RNA binding by human eIF4H; Q15056; eIF4H fluorescence polarization binding assay; inhibition, % at 35 µM; 290,000 compounds, 0.94% hits;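 also: calls also rest on retests at 20 µM and on dose response follow-up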
Yeast UUG start: alters start codon recognition fidelity in yeast | S. cerevisiae UUG-firefly luciferase reporter, luminescence/redox ratio | activity score, % at 18.7 µM | hit rate 0.13% among 350,000 | AID 602363;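 active means replicate mean at a twofold rise or more, about +100% in these data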;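 further: firefly luciferase made from a UUG start codon reports start codon fidelity; reporter light over untreated wells divided by growth signal over untreated wells; some hits fall short of that in this replicate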
PABP FP inh: PABP-poly(A) binding inhibition; P11940; PABP-poly(A) RNA binding, fluorescence polarization; calls only at 35 µM; 290,000 compounds, 1% hits; AID 2014;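 also: calls also rest on retests at 20 µM and on dose response follow-up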
MLLE-PAM2 inh: blocks PAM2 peptide binding to the PABP1 MLLE domain; P11940; GST-MLLE / FITC-PAM2 fluorescence polarization; inhibition, % at 20 µM; 360,000 compounds, 0.36% hits; in the data active = inhibition above about 35%, passing the limit was not always enough;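 also: plate controls were DMSO wells with GST-MLLE for no effect and wells lacking GST-MLLE protein for full effect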
* hit, by the source's call; i = inactive; ? = inconclusive; / = not tested or not shown; + = active, no number. Rows were chosen to be rich in hits. Some 1.5% of all compounds tested hit in one or more screens of this group. Unless noted, no rule for the calls is given here.

DSG3 Ab inh	MLLE-PAM2 inh	eIF4H FP inh	Yeast UUG start	PABP FP inh	SMILES
98	6	55*	0	+	CC1=C(C(=O)Nc2cc(-c3cccc(F)c3)[nH]n2)C2(CCCCC2)OC1=O
95	1	38	-27	i	O=C(Nc1cc(-c2ccccc2)[nH]n1)c1ccccc1F
/	/	/	13	/	COc1ccc(S(=O)(=O)N(C)C[C@@H]2OCCCC[C@@H](C)Oc3ccc(NS(C)(=O)=O)cc3C(=O)N([C@@H](C)CO)C[C@@H]2C)cc1
101	45*	-6	-12	i	O=[N+]([O-])c1ccc(-c2nc(=S)c3c(o2)CCCC3)cc1
100	45*	-2	/	i	COc1cccc(-c2nc(=S)c3c(o2)CCCC3)c1
/	36	-8	11	i	S=c1nc(-c2ccccc2)oc2c1CCCC2
/	/	/	5	/	C[C@@H]1CCCCO[C@@H](CN(C)S(=O)(=O)c2cccs2)[C@H](C)CN([C@H](C)CO)C(=O)c2cc(NC(=O)Nc3cccc4ccccc34)ccc2O1
/	/	/	2	/	COCc1cn(CC[C@@H]2CC[C@@H](NC(=O)Nc3ccc(OC)cc3)[C@H](CO)O2)nn1
/	/	/	216*	/	COCc1cn(CC[C@H]2CC[C@H](NC(=O)Nc3ccc(OC)cc3)[C@H](CO)O2)nn1
/	/	/	3	/	CCC(=O)N1[C@H](CO)[C@@H]2c3ccccc3N(S(=O)(=O)c3ccccc3F)C[C@@H]21
82	37*	-4	-3	i	O=C(CC(Sc1ccccc1)c1cccs1)c1ccco1 (configuration not stated)
99	24	24	-3	i	O=C(Cc1cccs1)OCC(=O)c1ccco1
111	-16	81*	-29	i	CCc1ccc(N=C2NC(=O)/C(=C/c3cc(Br)c(OCC(=O)O)c(OC)c3)S2)cc1
/	-60	130	7	+	COCCn1c(C)cc(C(=O)CSc2nnc(-c3cccnc3)n2-c2ccccc2F)c1C
96	-22	39*	-5	+	CN(C(=O)CSc1nnc(-c2cccnc2)n1-c1ccccc1F)C1CCS(=O)(=O)C1 (configuration not stated)
95	3	2	-31	i	CN(C(=O)CSc1nnc(-c2ccncc2)n1-c1ccccc1)C1CCS(=O)(=O)C1 (configuration not stated)
57*	5	-14	/	i	CCOC(=O)CSc1nc2sc(C)c(C)c2c(=O)n1N
/	-12	-2	-14	i	CCOC(=O)CSc1nc2sc(C)c(C)c2c(=O)n1C
93	-2	?	-9	+	O=C(NC(c1ccc(Cl)cc1)c1cc(Cl)c2cccnc2c1O)c1cccnc1 (configuration not stated)
87*	6	6	-18	i	CC(C)OC(=O)CSc1nc2c(cc1C#N)CCCCC2
/	18	8	-6	i	CC(C)OC(=O)CC(=O)CSc1nc2c(cc1C#N)CCCCC2
/	/	/	-1	/	O=C(C[C@H]1C=C[C@H](NC(=O)C2CCC2)[C@@H](CO)O1)Nc1nccs1
63*	-2	2	-9	i	CCN(CC)S(=O)(=O)c1ccc(N/N=C/c2cc(OC)c(OC)cc2OC)nc1
/	/	/	21	/	O=C(NCC[C@H]1CC[C@H](NC(=O)c2cnccn2)[C@H](CO)O1)Nc1ccc(Cl)cc1
/	-76	84*	4	+	CC1=C(C(=O)Nc2ccccc2)C(c2ccc(C)o2)n2c(s/c(=C\c3ccco3)c2=O)=N1 (configuration not stated)
/	/	/	12	/	C[C@@H]1CCCCO[C@@H](CN(C)S(=O)(=O)c2ccc(F)cc2)[C@H](C)CN([C@@H](C)CO)C(=O)c2cc(NC(=O)c3ccccc3)ccc2O1
84*	8	/	5	/	CN(C(=O)C1CC1)C1CCS(=O)(=O)C1 (configuration not stated)
/	/	/	13	/	CNC[C@H]1OCCCC[C@@H](C)Oc2ccc(NC(=O)Nc3ccccc3)cc2C(=O)N([C@@H](C)CO)C[C@H]1C
/	/	/	10	/	C[C@@H]1CN([C@@H](C)CO)C(=O)c2cc(C#CC3CCCC3)cnc2O[C@H]1CN(C)S(C)(=O)=O
/	/	/	-1	/	C[C@H](CO)N1C[C@H](C)[C@H](CN(C)S(=O)(=O)c2cn(C)cn2)Oc2ccc(NS(=O)(=O)c3ccc(F)cc3)cc2CC1=O
/	-6	104*	/	+	C=CCOc1ccc(CNc2ccc3[nH]c(=O)[nH]c3c2)cc1OC
121	41*	3	-7	i	Cc1ccc2sc(C)[n+](CCC(C)S(=O)(=O)[O-])c2c1 (configuration not stated)
/	/	0	/	i	CC/C(=C/c1sc2ccc(C)cc2[n+]1CCCS(=O)(=O)[O-])SC
/	1	90*	-17	+	NC1=NC(=O)/C(=C/c2cccc(-c3ccc(S(N)(=O)=O)cc3)c2)S1
90	27	0	/	i	NC1=NC(=O)/C(=C\c2ccc(O)c([N+](=O)[O-])c2)S1
/	/	/	-4	/	O=C(C[C@H]1CC[C@@H](NC(=O)C2CCOCC2)[C@H](CO)O1)Nc1nccs1

A different layout for five compounds above:
Compound,DSG3 Ab inh,MLLE-PAM2 inh,eIF4H FP inh,Yeast UUG start,PABP FP inh
Cc1ccc2sc(C)[n+](CCC(C)S(=O)(=O)[O-])c2c1 (configuration not stated),121,41*,3,-7,i
CC/C(=C/c1sc2ccc(C)cc2[n+]1CCCS(=O)(=O)[O-])SC,/,/,0,/,i
NC1=NC(=O)/C(=C/c2cccc(-c3ccc(S(N)(=O)=O)cc3)c2)S1,/,1,90*,-17,+
NC1=NC(=O)/C(=C\c2ccc(O)c([N+](=O)[O-])c2)S1,90,27,0,/,i
O=C(C[C@H]1CC[C@@H](NC(=O)C2CCOCC2)[C@H](CO)O1)Nc1nccs1,/,/,/,-4,/

(more compounds)
DSG3 Ab inh	MLLE-PAM2 inh	eIF4H FP inh	Yeast UUG start	PABP FP inh	SMILES
/	-7	-4	-22	i	O=C1c2cccnc2C(=O)N1CO
87	39*	/	/	/	NC1=C(Br)C(=O)c2ncccc2C1=O
/	/	/	-4	/	CC(=O)N(C)C[C@@H]1Oc2ncc(C#CC(C)(C)O)cc2C(=O)N([C@H](C)CO)C[C@@H]1C
91*	6	-14	10	i	Cc1cc(C)cc(N(CC(=O)NC2CCC(C)CC2)S(=O)(=O)c2c(C)noc2C)c1 (configuration not stated)
/	/	/	-8	/	O=C(CC1CC1)Nc1ccc2c(c1)[C@H]1C[C@H](CC(=O)NC3CCCCC3)O[C@@H](CO)[C@H]1O2
106	9	5	-6	i	Nc1cc(=O)[nH]c(SCc2cccc3ccccc23)n1
96	40*	-8	-9	i	N#CC1=C(N)N=C(SCc2cccc3ccccc23)C(C(N)=O)C12CCCCC2 (configuration not stated)
88*	-4	/	-11	/	CCN(CC)c1ccc(NC(=O)CCCCC(=O)Nc2ccc(N(CC)CC)cc2)cc1
/	-6	-13	/	i	CCN(CC)c1ccc(NC(=O)CCCCCN2C(=O)c3ccccc3C2=O)cc1
112	18	52*	-15	+	O=C(O)c1ccc2c(c1)CCCN2
/	/	/	-6	/	O=C(Nc1ccc(F)cc1)N[C@@H]1C=C[C@@H](CC(=O)N2CCCCC2)O[C@H]1CO
100	-20	64	10	+	CC1(C)C(=O)Nc2ccccc2N1C(=O)COc1ccc(S(=O)(=O)N2CCOCC2)cc1Cl
/	/	/	2	/	Cc1noc(C)c1S(=O)(=O)N(C)C[C@@H]1Oc2ccc(NS(=O)(=O)c3cccs3)cc2C(=O)N([C@H](C)CO)C[C@@H]1C
106	-5	active	/	+	COc1ccc(C(=O)COC(=O)c2cc(S(=O)(=O)NCc3ccccc3)ccc2O)cc1
102	-5	?	-9	?	CN1CCc2c(sc(/N=C/c3cccs3)c2C(N)=O)C1
99	-2	74*	-20	i	Cc1ccc(/C=N/c2sc3c(c2C(N)=O)CCCC3)o1
